Test results taken from paper PMC11604427 (Frontiers in Pharmacology, 2024).

Amino acid sequences for entries named in this document (tags omitted).
UniProt Q92769, whole entry, looked up: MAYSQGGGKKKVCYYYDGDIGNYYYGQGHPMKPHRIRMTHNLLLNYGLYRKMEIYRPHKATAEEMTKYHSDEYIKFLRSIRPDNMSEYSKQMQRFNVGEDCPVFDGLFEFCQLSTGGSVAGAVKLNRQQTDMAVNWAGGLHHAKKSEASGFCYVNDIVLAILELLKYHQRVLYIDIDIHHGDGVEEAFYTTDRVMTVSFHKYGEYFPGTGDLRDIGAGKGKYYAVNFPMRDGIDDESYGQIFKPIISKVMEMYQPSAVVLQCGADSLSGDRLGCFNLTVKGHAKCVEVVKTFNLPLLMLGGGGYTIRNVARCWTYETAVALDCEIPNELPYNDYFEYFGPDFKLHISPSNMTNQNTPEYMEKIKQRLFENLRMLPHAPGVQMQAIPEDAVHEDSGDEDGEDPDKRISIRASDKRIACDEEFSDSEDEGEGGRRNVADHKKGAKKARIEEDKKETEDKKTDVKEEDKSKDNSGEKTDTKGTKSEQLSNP

Target: Human recombinant HDAC2 enzyme (Homo sapiens, UniProt Q92769)
Test: HDAC2 fluorescence enzyme inhibition assay (Boc-Lys(acetyl)-AMC)
Assay type: biochemical
Settings: fluorescence signal-based method

Q: With `Cc1ccc(O)c(C)c1-n1c(N)c(C(N)=O)c2nc3c(Br)cccc3nc21` as the molecule, how does the “HDAC2 (IC50, nM)” value read?
A: Its value is “no inhibition”.
